What was measured:
[1] = target: T1, BMP type II receptor (BMPRII) (Homo sapiens, UniProt Q13873); assay: BRE-luciferase reporter assay in COS7 cells transfected with BMP type II receptor; type: cell-based; details: 25 ng/ml BMP2, COS7
T1 construct: expressed in transfected cells; host or cells: COS7
T1 sequence (Q13873 27-1038): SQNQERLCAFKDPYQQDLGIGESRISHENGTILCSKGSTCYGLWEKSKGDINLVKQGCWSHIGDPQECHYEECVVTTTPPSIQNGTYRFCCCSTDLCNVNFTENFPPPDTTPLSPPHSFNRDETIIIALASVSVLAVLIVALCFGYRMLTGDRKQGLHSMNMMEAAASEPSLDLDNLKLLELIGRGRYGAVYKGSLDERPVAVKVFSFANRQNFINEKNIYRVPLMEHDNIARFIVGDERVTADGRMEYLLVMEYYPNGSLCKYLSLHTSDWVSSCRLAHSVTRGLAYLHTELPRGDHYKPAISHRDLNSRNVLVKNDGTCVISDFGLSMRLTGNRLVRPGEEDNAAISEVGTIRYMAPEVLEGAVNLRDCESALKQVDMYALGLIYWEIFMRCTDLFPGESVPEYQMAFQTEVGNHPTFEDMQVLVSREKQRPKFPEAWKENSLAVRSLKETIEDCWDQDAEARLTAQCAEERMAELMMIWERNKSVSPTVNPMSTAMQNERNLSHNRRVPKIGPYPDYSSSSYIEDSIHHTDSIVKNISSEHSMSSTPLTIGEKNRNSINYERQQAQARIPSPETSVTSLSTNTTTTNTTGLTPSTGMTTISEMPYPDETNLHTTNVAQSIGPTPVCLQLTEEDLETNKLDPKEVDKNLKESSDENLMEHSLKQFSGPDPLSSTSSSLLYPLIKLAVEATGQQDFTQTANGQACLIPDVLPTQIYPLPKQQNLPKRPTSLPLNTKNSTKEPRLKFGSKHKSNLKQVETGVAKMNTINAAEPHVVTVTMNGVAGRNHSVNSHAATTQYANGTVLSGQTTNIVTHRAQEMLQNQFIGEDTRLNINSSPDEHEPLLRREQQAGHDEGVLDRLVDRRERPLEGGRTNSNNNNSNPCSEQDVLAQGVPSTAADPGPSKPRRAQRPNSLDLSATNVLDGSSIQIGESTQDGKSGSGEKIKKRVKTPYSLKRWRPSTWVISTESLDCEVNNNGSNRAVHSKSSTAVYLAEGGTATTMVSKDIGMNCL
Method: The results represent the mean values from three independent experiments performed in triplicates (Error bars represent SEM).*P<0.05, **P<0.01. […] The results represent the mean values from three different independent experiments. […] Luciferase activity was measured and normalized to phRL-CMV activity. […] Results shown represent the mean values form three independent experiments. […] The results shown are the mean values from three independent experiments. (Error bars represent SEM, ***p<0.001).
Little is known about the down-stream signaling events that follow MIS binding to its receptor. Reporters that have been used to study MIS effects include the BMP-specific reporter genes XVent2 and Tlx (Clarke, 2001b). In this study the inventors used a BMP-responsive (BRE) promoter to drive expression of firefly luciferase. This reporter is also activated by BMPs, but not by TGFβ or activin (Korchynskyi and ten Dijke, 2002). To investigate the receptor-specificity of SP600125 and exclude the possibility that this molecule activates other signaling pathways common for the TGFβ family, the inventors transfected COS7 cells with a BMP type II receptor (BMPRII) expression construct and the BRE-luciferase reporter. […]

Amino acid sequences for entries named in this document (tags omitted).
UniProt P53779, whole entry, species assumed: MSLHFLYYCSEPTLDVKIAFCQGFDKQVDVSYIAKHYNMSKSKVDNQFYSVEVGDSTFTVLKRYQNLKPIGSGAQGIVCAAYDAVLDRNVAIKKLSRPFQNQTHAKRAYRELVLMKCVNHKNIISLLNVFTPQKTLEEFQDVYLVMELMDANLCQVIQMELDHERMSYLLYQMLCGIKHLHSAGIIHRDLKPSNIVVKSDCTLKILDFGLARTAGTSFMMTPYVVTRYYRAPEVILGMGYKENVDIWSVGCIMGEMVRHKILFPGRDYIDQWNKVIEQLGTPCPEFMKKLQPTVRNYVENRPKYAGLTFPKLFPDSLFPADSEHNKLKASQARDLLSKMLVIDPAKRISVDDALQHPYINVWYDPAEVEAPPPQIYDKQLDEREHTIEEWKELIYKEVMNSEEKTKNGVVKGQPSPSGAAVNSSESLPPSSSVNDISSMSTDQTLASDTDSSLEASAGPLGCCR

JNK3 = JNK3 (Homo sapiens, UniProt P53779); details: cited from earlier work

Compound	BRE-luciferase activity in BMPRII-transfected cells [1]	IC50 (JNK3)
BMP2: a ligand for BMPRII, purchased from R&D Systems	induced BRE-luciferase activity	–
O=C1c2ccccc2-c2n[nH]c3cccc1c23 [SP600125, anthra[1,9-cd]pyrazol-6(2H)-one]	–	~150 nM

Reference: patent publication US9260759B2, “Pyrazoloanthrone and derivatives thereof for the treatment of cancers expressing MISRII” (The General Hospital Corporation, priority 2007, dated 2016)
